# Ab-14 heavy chain CDR variants: yeast mating affinities

Target peptide (SARS-CoV-2 spike, HR2 region): PDVDLGDISGINAS

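Phage display of a naive human antibody library on the peptide gave the parent. This is the validation round: designs drawn from the data on random variants, tested in the same kind of assay. Their group label is 14H_En_HC (En: ensemble of fine-tuned language models; HC: hill climbing; a sequence that several methods proposed may carry one label only). The assay is AlphaSeq: two haploid yeast populations carry antibody and antigen on their surface. Binding brings cells together so that they mate, and sequencing counts the barcode pairs among the diploids. Each replicate has its own calibration line, from reference interactions of the BCL2 family. There are six technical replicates.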

Parent: Ab-14, a human scFv built as VH, three GGGGS repeats, VL. Only the CDRs of the heavy chain vary.
VH: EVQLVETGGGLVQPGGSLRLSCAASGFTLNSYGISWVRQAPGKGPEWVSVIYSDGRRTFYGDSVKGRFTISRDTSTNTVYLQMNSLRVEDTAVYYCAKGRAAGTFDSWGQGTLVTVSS
VL: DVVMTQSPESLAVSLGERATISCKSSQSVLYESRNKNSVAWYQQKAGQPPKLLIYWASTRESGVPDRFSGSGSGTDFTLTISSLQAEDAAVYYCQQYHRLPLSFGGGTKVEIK

The whole VH of each variant is written out. Numbers give log10(Kd / nM), so 0 is 1 nM and 3 is 1 µM. Smaller is tighter. Replicates are averaged; those with no signal do not enter the mean. The range of this assay differs from that of the first round, and the authors advise against merging the two.

| VH | log10 Kd (nM) by replicate | mean, log10 nM | signal with controls |
|---|---|---|---|
| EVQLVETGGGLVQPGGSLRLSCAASGFDLNEYGISWVRQAPGKGPEWVSVIYADGRRTSYADSVKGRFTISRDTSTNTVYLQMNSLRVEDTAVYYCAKGTAAGTFDQWGQGTLVTVSS | -0.65 / 0.25 / -0.56 / -0.40 / -0.36 / 0.14 | -0.26 | 1/18 (1.82) |
| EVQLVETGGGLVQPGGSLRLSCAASGFDLNEYGISWVRQAPGKGPEWVSVIYADGKRTFYSDSVKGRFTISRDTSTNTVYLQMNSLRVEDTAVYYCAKGTNGGTFDMWGQGTLVTVSS | 0.20 / -0.30 / -0.07 / 0.12 / 0.11 / 0.25 | 0.05 | 0/18 |
| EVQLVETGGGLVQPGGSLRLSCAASGFDLNEYGISWVRQAPGKGPEWVSVIYADGRRTQYADSVKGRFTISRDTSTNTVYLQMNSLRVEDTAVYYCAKGNEAGTFDVWGQGTLVTVSS | 0.09 / -0.39 / 0.14 / -0.07 / -0.35 / -0.20 | -0.13 | 0/18 |
| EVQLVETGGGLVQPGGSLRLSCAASGFDLNEYGISWVRQAPGKGPEWVSVIYADGVRTAYTDSVKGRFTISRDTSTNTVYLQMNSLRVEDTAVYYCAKGHAAGTFDLWGQGTLVTVSS | -0.06 / -0.82 / -0.94 / -1.05 / -0.63 / -0.50 | -0.67 | 0/18 |
| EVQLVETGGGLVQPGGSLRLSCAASGFDLNEYGISWVRQAPGKGPEWVSVIYADGRRTAYSDSVKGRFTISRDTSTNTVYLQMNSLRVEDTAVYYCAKGEVAGTFVLWGQGTLVTVSS | 0.12 / 0.00 / 0.16 / 0.21 / 0.10 / 0.07 | 0.11 | 1/18 (2.50) |
| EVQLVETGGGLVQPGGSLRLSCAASGFDLNEYGISWVRQAPGKGPEWVSVIYADGRRTAYKDSVKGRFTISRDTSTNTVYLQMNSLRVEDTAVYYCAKGTNAGTFDQWGQGTLVTVSS | -0.54 / -0.42 / -0.77 / -0.77 / -0.54 / -0.10 | -0.52 | 0/18 |
| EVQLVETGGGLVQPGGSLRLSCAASGFDLNEYGISWVRQAPGKGPEWVSVIYADGRRTAYVDSVKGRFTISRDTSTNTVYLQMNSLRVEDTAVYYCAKGTNAGTFDQWGQGTLVTVSS | 0.07 / 0.41 / -0.61 / -0.19 / -0.27 / -0.54 | -0.19 | 0/18 |
| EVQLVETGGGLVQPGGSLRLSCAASGFDINEYGISWVRQAPGKGPEWVSVIYADGRRTFYTDSVKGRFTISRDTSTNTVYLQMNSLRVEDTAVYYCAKGGNAGTFDVWGQGTLVTVSS | -0.26 / -0.56 / -0.87 / -0.64 / -0.73 / -0.70 | -0.63 | 0/18 |
| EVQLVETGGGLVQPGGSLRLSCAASGFDLNEYGISWVRQAPGKGPEWVSVIYADGVRTAYADSVKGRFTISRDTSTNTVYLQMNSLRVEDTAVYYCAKGQLAGTFDTWGQGTLVTVSS | -0.43 / -0.51 / -0.79 / -0.90 / -0.74 / -0.86 | -0.70 | 2/18 (1.41) |
| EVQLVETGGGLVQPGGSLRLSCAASGFDLNEYGISWVRQAPGKGPEWVSVIYADGRRTFYADSVKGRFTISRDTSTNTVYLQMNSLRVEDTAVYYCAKGEEAGTFDVWGQGTLVTVSS | -0.83 / -1.55 / -1.04 / -1.23 / -1.48 / -0.71 | -1.14 | 0/18 |
| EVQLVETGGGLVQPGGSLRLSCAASGFDLNEYGISWVRQAPGKGPEWVSVIYADGRRTAYADSVKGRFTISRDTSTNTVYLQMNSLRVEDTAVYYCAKGNTAGTFLSWGQGTLVTVSS | -0.01 / 0.12 / 0.16 / -0.18 / 0.14 / 0.14 | 0.06 | 0/18 |
| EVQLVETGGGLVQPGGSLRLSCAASGFDLNEYGISWVRQAPGKGPEWVSVIYADGRRTFYADSVKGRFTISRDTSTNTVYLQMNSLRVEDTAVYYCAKGQVAGTFDTWGQGTLVTVSS | 0.61 / 0.46 / -0.12 / -0.54 / -0.33 / 0.26 | 0.06 | 0/18 |
| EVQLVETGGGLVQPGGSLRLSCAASGFDLNEYGISWVRQAPGKGPEWVSVIYADGKRTFYSDSVKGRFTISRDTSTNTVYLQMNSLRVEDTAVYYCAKGQTAGTFDEWGQGTLVTVSS | -0.19 / -0.12 / -0.34 / -0.22 / -0.38 / -0.22 | -0.24 | 2/18 (2.97) |
| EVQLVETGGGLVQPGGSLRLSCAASGFDLNEYGISWVRQAPGKGPEWVSVIYADGRRTFYTDSVKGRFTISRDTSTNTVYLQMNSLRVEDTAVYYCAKGANAGTFDSWGQGTLVTVSS | 0.05 / -0.08 / -0.94 / -0.47 / -0.15 / -0.60 | -0.36 | 0/18 |

In the paper, a design with two or fewer of six values counts as a poor binder. The parent sequence was in this pool as ten entries: three were never detected, three once, and four in most replicates, with averages from 0.34 to 2.37. Nonspecific signal, from three strains lacking the peptide, appeared in 1% of pairings of all heavy chain designs, centred on 2.08 (5% of these signals below 0.84); values are not corrected for it. The control count says in how many pairings with the empty strains this scFv gave a signal, with their mean in brackets.

Reference: Li et al. 2023, doi:10.1038/s41467-023-39022-2. File: FLAb, binding data.